Measurements taken from publication PMC9371589 (Behavioural pharmacology, 2022).

Tested on: rhesus monkeys
Conditions: both, rhesus monkey, in vivo

## buprenorphine
  maximum number of infusions: 12.4 ± 4.8 infusions
